Assay: logP determination (neutral / HCOOH)

Substance: 2-(6-cyanopyridin-2-yl)-3-dimethylaminoallylidene]dimethylammonium hexafluorophosphate
- logP (HCOOH): -0.07

— patent US9066518B2, “Heterocyclic compounds as pesticides” (Bayer CropScience AG, priority 2009, dated 2015)
